From patent US8058233B2, “Modification of feeding behavior using PYY and GLP-1” (Oregon Health and Science University, priority 2002, dated 2011) come the findings set out here.

A short description of series [1]: Plasma PYY3-36 after subcutaneous administration to human subjects. Type of series: in vivo. To be noted: 10 nmoles and 20 nmoles in saline; FIG. 10.
Series [2] can be described thus: Human study: 90 minute intravenous PYY3-36 infusion, double-blind crossover, non-obese volunteers. The series is classed as in vivo.

In the case of `CC[C@H](C)[C@H](N)C(=O)N[C@@H](CCCCN)C(=O)N1CCC[C@H]1C(=O)N[C@@H](CCC(=O)O)C(=O)N[C@@H](C)C(=O)N1CCC[C@H]1C(=O)NCC(=O)N[C@@H](CCC(=O)O)C(=O)N[C@@H](CC(=O)O)C(=O)N[C@@H](C)C(=O)N[C@@H](CO)C(=O)N1CCC[C@H]1C(=O)N[C@@H](CCC(=O)O)C(=O)N[C@@H](CCC(=O)O)C(=O)N[C@@H](CC(C)C)C(=O)N[C@@H](CC(N)=O)C(=O)N[C@@H](CCCN=C(N)N)C(=O)N[C@@H](Cc1ccc(O)cc1)C(=O)N[C@@H](Cc1ccc(O)cc1)C(=O)N[C@@H](C)C(=O)N[C@@H](CO)C(=O)N[C@@H](CC(C)C)C(=O)N[C@@H](CCCN=C(N)N)C(=O)N[C@@H](Cc1cnc[nH]1)C(=O)N[C@@H](Cc1ccc(O)cc1)C(=O)N[C@@H](CC(C)C)C(=O)N[C@@H](CC(N)=O)C(=O)N[C@@H](CC(C)C)C(=O)N[C@H](C(=O)N[C@H](C(=O)N[C@@H](CCCN=C(N)N)C(=O)N[C@@H](CCC(N)=O)C(=O)N[C@@H](CCCN=C(N)N)C(=O)N[C@@H](Cc1ccc(O)cc1)C(N)=O)[C@@H](C)O)C(C)C` [PYY3-36], the “plasma levels of PYY3-36 after subcutaneous administration” value in series [1] was “raised plasma levels”. For the same compound, the “time for plasma concentrations to return to basal post-infusion” value in series [2] (after 90 minute infusion) is at most 30 min. For the same compound, the “scores for sleepiness or sickness” value in series [2] (infusion) was “but not in the scores for sleepiness or sickness”. The “sensations of fullness or nausea” value in series [2] (reported by the volunteers) was “no difference”.
